Measured values published in US20040242660A1, “Substituted oxazolidinones for combinational therapy” (priority 2001, published 2004).

Protein sequences, listed by entry. Tags and fused reporters are not part of them. Residues count along the entry.
UniProt P00742, 41-179 partner limits assumed: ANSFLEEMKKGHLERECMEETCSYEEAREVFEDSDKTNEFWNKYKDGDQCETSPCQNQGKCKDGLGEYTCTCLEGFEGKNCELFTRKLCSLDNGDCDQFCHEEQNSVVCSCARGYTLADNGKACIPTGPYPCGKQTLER
UniProt P00742, 235-488 limits assumed: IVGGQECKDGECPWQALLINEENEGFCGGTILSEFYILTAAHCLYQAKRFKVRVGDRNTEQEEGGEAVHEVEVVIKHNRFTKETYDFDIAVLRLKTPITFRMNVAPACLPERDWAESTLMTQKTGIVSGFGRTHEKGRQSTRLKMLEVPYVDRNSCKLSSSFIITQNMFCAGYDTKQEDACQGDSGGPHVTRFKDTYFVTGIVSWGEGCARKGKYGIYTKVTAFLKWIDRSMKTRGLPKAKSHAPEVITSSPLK

Target: human factor Xa (FXa) (Homo sapiens, UniProt P00742)
Assay: Measurement of factor Xa inhibition (chromogenic substrate)
Assay type: biochemical
Experimental: a.1) Measurement of Factor Xa Inhibition
In this case, factor Xa eliminates p-nitroaniline from the chromogenic substrate.
The test substances were dissolved in various concentrations in DMSO and incubated with human FXa (0.5 nmol/l dissolved in 50 mmol/l tris buffer [C,C,C-tris(hydroxymethyl)-aminomethane], 150 mmol/l NaCl, 0.1% BSA (bovine serum albumine), pH=8,3) at 25° C. for 10 minutes. Pure DMSO serves as control.

`NC1CCN(c2ccc(N3C[C@H](CNC(=O)c4ccc(Cl)s4)OC3=O)cn2)C1` (stereo partly shown) [Example 52] was tested, and the IC50 was 190 nM.
